Earlier results on one compound are cited in patent publication US6624199B1, “Aminobenzophenones” (Leo Pharmaceuticals Products Ltd. A/S, priority 1999, dated 2003).

For the series the following is noted: topical administration; cited from earlier work.

In the case of `CCC[C@@H]1C[C@@H](C(=O)N[C@@H]([C@H]2O[C@H](SC)[C@H](O)[C@@H](O)[C@H]2O)[C@H](C)Cl)N(C)C1` [Clindamycin], the Potential irritant result is reported as “No”.
